Test results published in paper PMC3773341 (Biology Open, 2013).

The chains behind the UniProt entries cited, without tags or fusion partners. Where a name states a change or a piece, a line headed by the entry shows the natural chain unless it says otherwise.
UniProt O95180: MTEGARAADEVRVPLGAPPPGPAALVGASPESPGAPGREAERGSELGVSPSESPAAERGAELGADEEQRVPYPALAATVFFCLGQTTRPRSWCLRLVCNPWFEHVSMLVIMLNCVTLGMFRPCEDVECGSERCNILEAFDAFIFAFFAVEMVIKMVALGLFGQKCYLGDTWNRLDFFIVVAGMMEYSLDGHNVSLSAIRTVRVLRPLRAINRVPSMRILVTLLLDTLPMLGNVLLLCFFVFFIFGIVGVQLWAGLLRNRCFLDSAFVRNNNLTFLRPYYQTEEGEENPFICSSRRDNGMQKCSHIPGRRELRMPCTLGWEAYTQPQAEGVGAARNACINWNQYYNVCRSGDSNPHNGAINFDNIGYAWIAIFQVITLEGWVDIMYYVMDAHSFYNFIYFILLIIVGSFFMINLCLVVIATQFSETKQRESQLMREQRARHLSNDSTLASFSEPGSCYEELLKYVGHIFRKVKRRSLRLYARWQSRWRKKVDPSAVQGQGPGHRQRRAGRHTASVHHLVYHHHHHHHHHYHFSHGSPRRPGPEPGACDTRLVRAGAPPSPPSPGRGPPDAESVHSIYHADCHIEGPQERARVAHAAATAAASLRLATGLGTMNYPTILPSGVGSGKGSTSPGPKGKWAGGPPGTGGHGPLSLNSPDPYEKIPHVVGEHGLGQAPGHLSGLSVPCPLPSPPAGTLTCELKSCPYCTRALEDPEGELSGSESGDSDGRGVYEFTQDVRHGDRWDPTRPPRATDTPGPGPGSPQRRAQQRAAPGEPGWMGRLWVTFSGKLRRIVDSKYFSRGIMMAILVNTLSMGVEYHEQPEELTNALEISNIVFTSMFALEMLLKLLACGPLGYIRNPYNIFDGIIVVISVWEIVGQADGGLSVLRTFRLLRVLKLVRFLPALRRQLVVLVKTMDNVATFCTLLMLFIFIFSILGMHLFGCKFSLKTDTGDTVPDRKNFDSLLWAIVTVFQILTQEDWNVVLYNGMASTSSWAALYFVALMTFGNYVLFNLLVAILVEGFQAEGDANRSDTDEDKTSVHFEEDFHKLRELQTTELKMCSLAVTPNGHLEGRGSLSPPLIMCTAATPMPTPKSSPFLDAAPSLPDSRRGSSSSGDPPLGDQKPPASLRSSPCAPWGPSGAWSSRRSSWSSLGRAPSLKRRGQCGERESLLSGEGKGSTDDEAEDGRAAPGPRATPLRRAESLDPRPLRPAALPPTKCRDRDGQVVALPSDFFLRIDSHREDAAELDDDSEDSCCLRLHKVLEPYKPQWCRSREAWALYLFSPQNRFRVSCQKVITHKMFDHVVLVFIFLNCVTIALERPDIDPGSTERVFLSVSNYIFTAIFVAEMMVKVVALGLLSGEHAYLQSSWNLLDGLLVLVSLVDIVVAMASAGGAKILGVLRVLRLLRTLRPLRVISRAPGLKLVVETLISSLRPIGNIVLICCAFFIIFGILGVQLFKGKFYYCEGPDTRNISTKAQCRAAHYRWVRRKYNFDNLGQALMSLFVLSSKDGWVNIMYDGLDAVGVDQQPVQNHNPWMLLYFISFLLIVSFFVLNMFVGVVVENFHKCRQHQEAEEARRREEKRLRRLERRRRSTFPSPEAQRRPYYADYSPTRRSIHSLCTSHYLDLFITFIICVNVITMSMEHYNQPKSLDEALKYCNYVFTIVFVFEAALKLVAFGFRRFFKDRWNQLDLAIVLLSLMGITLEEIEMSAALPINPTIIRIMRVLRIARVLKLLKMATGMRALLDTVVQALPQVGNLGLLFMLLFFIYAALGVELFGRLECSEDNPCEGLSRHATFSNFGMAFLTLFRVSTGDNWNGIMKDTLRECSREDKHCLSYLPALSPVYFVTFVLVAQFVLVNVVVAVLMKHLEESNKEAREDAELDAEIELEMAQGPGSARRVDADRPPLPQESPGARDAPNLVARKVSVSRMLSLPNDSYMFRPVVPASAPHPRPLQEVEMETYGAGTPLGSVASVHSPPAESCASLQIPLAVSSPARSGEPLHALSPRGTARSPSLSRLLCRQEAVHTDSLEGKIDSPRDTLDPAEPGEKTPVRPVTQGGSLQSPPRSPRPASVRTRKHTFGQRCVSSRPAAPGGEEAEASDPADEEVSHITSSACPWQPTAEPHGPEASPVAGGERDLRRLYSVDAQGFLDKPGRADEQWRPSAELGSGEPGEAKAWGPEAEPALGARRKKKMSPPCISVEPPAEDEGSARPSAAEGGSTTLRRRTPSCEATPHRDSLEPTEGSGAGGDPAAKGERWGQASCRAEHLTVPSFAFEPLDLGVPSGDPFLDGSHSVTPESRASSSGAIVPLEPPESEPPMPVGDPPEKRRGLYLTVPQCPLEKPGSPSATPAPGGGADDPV

Target: T1, Cav3.2 (α1H) T-type Ca2+ channel (Homo sapiens, UniProt O95180)
T1 construct: gene CACNA1H

Row | Compound | whole-cell patch clamp of T-type current in LNCaP-CTL, LNCaP-NE and Cav3.2-overe [µM]
1 | COCC(=O)O[C@]1(CCN(C)CCCc2nc3ccccc3[nH]2)CCc2cc(F)ccc2[C@@H]1C(C)C [mibefradil] | 5
2 | Fc1ccc(C(c2ccc(F)cc2)N2CCN(C/C=C/c3ccccc3)CC2)cc1 [Flu, flunarizine] | 5
